# Measurements as given in PubChem BioAssay.
# Sequences of proteins named here, by UniProt entry; tags and fusion partners are left off. A change or cut given only in a name is not applied to a line headed by its entry.
# UniProt Q8NFQ8: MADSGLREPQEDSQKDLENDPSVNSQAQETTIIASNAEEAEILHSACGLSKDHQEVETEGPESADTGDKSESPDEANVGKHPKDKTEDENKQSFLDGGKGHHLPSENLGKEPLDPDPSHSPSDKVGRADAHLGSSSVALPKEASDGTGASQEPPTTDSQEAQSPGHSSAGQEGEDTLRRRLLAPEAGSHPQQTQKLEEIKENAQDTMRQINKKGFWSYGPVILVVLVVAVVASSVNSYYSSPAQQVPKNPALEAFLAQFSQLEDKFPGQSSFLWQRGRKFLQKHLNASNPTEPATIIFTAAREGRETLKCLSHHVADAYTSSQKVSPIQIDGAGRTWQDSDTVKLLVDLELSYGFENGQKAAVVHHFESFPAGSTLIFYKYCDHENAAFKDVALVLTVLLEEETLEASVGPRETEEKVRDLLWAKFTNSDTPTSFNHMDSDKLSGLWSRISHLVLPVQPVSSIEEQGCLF
# UniProt Q9UM47, whole entry, looked up: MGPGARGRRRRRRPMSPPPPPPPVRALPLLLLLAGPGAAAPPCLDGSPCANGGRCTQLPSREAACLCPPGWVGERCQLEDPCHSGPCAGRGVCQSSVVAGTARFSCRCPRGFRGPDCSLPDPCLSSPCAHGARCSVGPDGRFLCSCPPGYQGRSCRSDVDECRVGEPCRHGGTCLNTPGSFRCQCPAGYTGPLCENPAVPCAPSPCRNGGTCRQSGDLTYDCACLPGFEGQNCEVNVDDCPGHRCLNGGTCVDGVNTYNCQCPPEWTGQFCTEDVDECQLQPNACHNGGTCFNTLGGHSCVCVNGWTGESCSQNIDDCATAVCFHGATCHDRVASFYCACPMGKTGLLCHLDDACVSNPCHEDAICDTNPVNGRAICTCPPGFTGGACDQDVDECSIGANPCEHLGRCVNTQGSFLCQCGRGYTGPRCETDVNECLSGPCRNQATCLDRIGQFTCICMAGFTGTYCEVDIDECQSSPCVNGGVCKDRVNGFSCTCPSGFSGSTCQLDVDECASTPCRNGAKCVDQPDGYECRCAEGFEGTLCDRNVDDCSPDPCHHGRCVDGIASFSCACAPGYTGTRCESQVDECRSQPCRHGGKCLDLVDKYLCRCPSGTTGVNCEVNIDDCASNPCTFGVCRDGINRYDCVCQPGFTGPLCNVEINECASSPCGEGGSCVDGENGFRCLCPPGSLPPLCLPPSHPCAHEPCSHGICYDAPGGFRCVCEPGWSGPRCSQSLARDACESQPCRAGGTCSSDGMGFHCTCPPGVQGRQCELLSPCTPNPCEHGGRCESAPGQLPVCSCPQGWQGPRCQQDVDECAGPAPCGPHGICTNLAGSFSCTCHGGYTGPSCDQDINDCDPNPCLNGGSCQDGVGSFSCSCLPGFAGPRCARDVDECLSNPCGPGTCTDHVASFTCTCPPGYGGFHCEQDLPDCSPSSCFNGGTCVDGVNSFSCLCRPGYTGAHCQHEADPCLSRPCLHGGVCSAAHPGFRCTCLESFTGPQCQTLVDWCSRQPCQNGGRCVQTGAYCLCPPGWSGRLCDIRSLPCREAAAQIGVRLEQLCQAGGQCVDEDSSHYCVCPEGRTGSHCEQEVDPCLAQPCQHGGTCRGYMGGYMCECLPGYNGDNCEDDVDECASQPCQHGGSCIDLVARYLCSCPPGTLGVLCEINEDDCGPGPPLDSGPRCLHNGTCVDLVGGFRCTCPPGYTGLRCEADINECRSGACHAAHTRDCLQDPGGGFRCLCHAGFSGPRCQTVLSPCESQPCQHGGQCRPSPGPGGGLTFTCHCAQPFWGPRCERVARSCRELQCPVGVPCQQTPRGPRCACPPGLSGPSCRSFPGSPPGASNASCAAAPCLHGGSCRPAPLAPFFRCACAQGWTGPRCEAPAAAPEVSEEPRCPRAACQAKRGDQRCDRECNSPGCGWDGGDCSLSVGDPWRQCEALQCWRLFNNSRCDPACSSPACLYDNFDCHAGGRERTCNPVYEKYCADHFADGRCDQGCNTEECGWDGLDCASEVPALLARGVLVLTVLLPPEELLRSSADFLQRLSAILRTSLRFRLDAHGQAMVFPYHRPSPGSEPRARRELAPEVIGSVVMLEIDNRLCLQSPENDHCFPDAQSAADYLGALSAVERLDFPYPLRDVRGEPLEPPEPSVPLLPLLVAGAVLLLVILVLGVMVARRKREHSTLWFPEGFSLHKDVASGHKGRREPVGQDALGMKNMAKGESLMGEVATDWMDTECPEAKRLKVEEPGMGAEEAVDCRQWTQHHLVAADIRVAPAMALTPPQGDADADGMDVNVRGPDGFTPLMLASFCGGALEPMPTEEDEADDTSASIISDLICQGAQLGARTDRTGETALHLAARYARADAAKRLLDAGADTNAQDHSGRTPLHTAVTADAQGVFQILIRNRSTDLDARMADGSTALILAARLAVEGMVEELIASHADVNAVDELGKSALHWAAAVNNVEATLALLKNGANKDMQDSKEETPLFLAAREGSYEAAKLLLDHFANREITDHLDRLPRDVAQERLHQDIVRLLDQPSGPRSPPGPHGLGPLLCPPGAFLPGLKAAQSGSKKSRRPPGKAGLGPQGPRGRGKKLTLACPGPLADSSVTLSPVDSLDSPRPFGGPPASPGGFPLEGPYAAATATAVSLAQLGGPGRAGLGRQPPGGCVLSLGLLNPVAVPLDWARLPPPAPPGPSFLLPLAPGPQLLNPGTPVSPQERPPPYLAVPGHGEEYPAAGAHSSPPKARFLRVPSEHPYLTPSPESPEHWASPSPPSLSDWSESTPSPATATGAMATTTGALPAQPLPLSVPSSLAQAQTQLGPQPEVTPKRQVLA
# UniProt O15520: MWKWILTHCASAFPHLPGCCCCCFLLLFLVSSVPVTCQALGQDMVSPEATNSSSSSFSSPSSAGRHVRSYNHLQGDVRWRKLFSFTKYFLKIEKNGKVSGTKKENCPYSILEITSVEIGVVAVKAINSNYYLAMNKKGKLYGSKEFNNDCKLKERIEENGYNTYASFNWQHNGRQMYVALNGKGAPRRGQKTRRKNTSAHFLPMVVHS
# UniProt O95633: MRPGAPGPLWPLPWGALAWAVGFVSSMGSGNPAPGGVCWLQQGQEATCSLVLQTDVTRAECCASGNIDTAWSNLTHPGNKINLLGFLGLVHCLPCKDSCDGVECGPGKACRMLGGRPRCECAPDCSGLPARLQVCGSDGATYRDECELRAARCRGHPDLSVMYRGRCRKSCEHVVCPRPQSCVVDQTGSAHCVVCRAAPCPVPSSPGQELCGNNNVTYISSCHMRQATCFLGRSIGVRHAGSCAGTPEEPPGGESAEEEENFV
# UniProt O94907: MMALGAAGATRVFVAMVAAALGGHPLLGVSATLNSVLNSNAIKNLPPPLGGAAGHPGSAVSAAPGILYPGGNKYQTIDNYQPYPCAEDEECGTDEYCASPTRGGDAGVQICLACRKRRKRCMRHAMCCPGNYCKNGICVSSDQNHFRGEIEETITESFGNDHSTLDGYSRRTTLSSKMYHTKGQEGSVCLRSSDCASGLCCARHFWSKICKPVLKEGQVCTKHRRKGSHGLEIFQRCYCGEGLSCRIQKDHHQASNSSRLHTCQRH
# UniProt O00292: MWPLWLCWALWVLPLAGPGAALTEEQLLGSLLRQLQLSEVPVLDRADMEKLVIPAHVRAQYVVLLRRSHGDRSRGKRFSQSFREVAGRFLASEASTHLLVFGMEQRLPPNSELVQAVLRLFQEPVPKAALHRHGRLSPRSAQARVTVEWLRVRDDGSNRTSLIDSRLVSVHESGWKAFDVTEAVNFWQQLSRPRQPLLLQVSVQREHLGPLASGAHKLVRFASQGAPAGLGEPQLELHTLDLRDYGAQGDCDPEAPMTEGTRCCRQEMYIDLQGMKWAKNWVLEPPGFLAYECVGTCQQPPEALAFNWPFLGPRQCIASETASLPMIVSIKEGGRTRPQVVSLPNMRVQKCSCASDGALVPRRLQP
# The list shows a part of the results, in another mix than the full data. Activity calls are given as the source filed them.
# Key:
# [1] = tested on: PRMT1 (protein arginine N-methyltransferase 1); assay: small molecules binding arginine methyltransferase PRMT1 – biochemical, small-molecule microarray, 635 nm fluorescence, primary screen (AID 1088); conditions: higher = more signal;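 further: binding of Prmt1 protein to compounds spotted on small-molecule microarray slides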
# [2] = growth effects on S. cerevisiae YJM789 – YJM789 clinical isolate, OD600, 24 h, basal, primary screen (AID 1089); conditions: higher = more signal, called active from +8 up or from −8 down;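 further: growth of clinical yeast isolate S. cerevisiae YJM 789 seeded 1000 cells per well; test concentration not given here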
# [3] = molecular target: Torsin-1A-interacting protein 2 (Homo sapiens) (UniProt Q8NFQ8); assay: small molecules binding lysate-expressed LULL1 – cell lysate, human LULL1 lysate, 635/667 nm fluorescence, primary screen (AID 1092); conditions: small-molecule microarray, hLULL1 lysate binding, 635 nm fluorescence; higher = more signal;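 further: probe is lysate of COS7 cells overexpressing human LULL1; score merges per-feature 667 nm fluorescence with signal-to-noise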
# [4] = probe aLefty2 binding to arrayed compounds – biochemical, biotinylated probe, 635/667 nm fluorescence, primary screen (AID 1094); conditions: small-molecule microarray, higher = more signal;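 further: score merges spot fluorescence near 667 nm with spot signal-to-noise ratio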
# [5] = tested on: Noggin (protein binding on small-molecule microarray); assay: small molecules binding Noggin protein – biochemical, 635/667 nm fluorescence, primary screen (AID 1095); conditions: 635 nm fluorescence, higher = more signal;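 further: score merges 667 nm feature fluorescence with signal to noise over triplicate slides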
# [6] = molecular target: Neurogenic locus notch homolog protein 3 (Homo sapiens) (UniProt Q9UM47); assay: small molecules binding NOTCH3 protein – biochemical, 635/667 nm fluorescence, primary screen (AID 1096); conditions: small-molecule microarray, 635 nm fluorescence, higher = more signal
# [7] = probe aEGFR binding to arrayed compounds – biochemical, biotinylated probe, 635/667 nm fluorescence, primary screen (AID 1097); conditions: small-molecule microarray, higher = more signal;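 further: probe is a biotinylated anti-EGFR antibody binding compounds printed on slides; score combines fluorescence near 667 nm and signal to noise of each spot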
# [8] = probe aDKK1 binding to arrayed compounds – biochemical, biotinylated probe, 635/667 nm fluorescence, primary screen (AID 1099); conditions: small-molecule microarray, higher = more signal;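 further: score merges 667nm spot fluorescence with signal to noise across triplicate slides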
# [9] = probe aCHRDL2 binding to arrayed compounds – biochemical, biotinylated probe, 635/667 nm fluorescence, primary screen (AID 1100); conditions: small-molecule microarray, higher = more signal
# [10] = change in splice reporter luminescence, either direction, cell-based, HEK293, spliceosome inhibition project, primary screen (AID 1101); conditions: HEK293 splicing luciferase reporter, 24 h, higher = more signal, called active from +8 up or from −8 down;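 further: HEK293 cells carrying a splicing-competent luciferase reporter gene; test concentration not given here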
# [11] = molecular target: Fibroblast growth factor 10 (Homo sapiens) (UniProt O15520); assay: compounds binding fibroblast growth factor 10 – biochemical, small-molecule microarray, 635 nm fluorescence, primary screen (AID 1102); conditions: FGF10 binding, fluorescence 635 nm, higher = more signal
# [12] = tested on: glycogen synthase kinase-3 (GSK3A per assay name; protocol says GSK3B); assay: compounds binding glycogen synthase kinase-3 – biochemical, small-molecule microarray, 635 nm fluorescence, GSK3A, primary screen (AID 1103); conditions: fluorescence 635 nm, higher = more signal; further: the record names both GSK3A and GSK3B
# [13] = molecular target: Epidermal growth factor receptor (Homo sapiens) (UniProt P00533); assay: compounds binding epidermal growth factor receptor – biochemical, small-molecule microarray, 635 nm fluorescence, primary screen (AID 1104); conditions: EGFR binding, higher = more signal;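 further: score merges 667 nm emission intensity with spot signal to noise over triplicate slides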
# [14] = molecular target: Follistatin-related protein 3 (Homo sapiens) (UniProt O95633); assay: compounds binding follistatin-related protein 3 – biochemical, small-molecule microarray, 635 nm fluorescence, primary screen (AID 1105); conditions: FSTL3 binding, higher = more signal;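 further: score merges emission near 667 nm and signal to noise per printed spot across three slides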
# [15] = molecular target: Dickkopf-related protein 1 (Homo sapiens) (UniProt O94907); assay: small molecules binding DKK1 protein – biochemical, small-molecule microarray, 635 nm fluorescence scan, primary screen (AID 1106); conditions: higher = more signal;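 further: score merges emission near 667 nm with signal to noise over three replicate slides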
# [16] = tested on: Inhibin beta A chain (activin A); assay: small molecules binding activin A – biochemical, small-molecule microarray, 635 nm fluorescence scan, primary screen (AID 1107); conditions: INHBA, higher = more signal;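 further: mouse activin A protein probed at 4.33 µg/mL on printed slides; score merges bound-protein fluorescence near 667 nm with spot signal-to-noise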
# [17] = hepatitis C replication reporter changes, two-sided – Huh7 cells, luciferase reporter, HCV replication inhibitor project, primary screen (AID 1109); conditions: Huh7 HCV replicon luciferase reporter, 48 h; higher = more signal;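 further: huh7 hepatoma cells harbouring a luciferase neomycin HCV replicon reporter; luciferase luminescence as measure of HCV replicon replication; test concentration not given here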
# [18] = molecular target: Left-right determination factor 2 (Homo sapiens) (UniProt O00292); assay: small molecules binding LEFTY2 protein – biochemical, small-molecule microarray, 635 nm fluorescence scan, primary screen (AID 1110); conditions: higher = more signal
# [19] = molecular target: Calmodulin-1 (Homo sapiens) (UniProt P0DP23); assay: small molecules binding calmodulin-1 with EGTA – biochemical, small-molecule microarray, Cy5-labelled CALM1, profiling panel (AID 1111); conditions: Cy5-CALM1 binding fluorescence, higher = more signal;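 further: labelled calmodulin applied in Tris saline Tween buffer holding calcium plus EGTA and DTT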
# [20] = molecular target: Calmodulin-1 (Homo sapiens) (UniProt P0DP23); assay: small molecules binding Ca-loaded calmodulin-1 – biochemical, small-molecule microarray, Cy5-labelled CALM1, plus calcium, artefact control for SMM control-protein annotation, profiling panel (AID 1112); conditions: Cy5-CALM1 binding fluorescence, higher = more signal;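 further: score merges spot fluorescence with signal to noise from triplicate slides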
SMILES,composite z-score [1],z-score [2],composite z-score [3],composite z-score [4],composite z-score [5],composite z-score [6],composite z-score [7],composite z-score [8],composite z-score [9],z-score [10],composite z-score [11],composite z-score [12],composite z-score [13],composite z-score [14],composite z-score [15],composite z-score [16],z-score [17],composite z-score [18],composite z-score [19],composite z-score [20]
COP(=O)(/N=C1/CC(CCCO)=CC(c2cccs2)N1C)OC (stereo not given),0.282,inactive: 0.297,2.53,0.728,1.43,0.643,0.696,1.73,0.962,inactive: -1.51,0.321,1.09,0.088,0.517,0.0074,1.02,0.483,0.17,1.92,1.39
CN1/C(=N\P(=O)(Oc2ccccc2)Oc2ccccc2)CC(CCCO)=CC1C1CC1 (stereo not given),1.07,inactive: -1.27,2.21,0.146,-0.203,0.252,0.356,0.863,0.645,inactive: -0.584,0.002,0.0444,-0.498,0.336,-0.425,0.883,-0.387,-0.266,2.17,1.08
O=P(/N=C1/CC(CCCO)=CC(c2cccs2)N1Cc1cccc(OC(F)(F)F)c1)(Oc1ccccc1)Oc1ccccc1 (stereo not given),1.58,inactive: 0.0167,2.71,0.131,-0.0666,0.703,-0.0476,0.511,0.737,inactive: -0.656,0.216,0.283,0.251,0.237,-0.122,1.09,-1.65,-0.245,1.69,0.78
COP(=O)(/N=C1/CC(CCCO)=CC(C2CC2)N1Cc1cc2c(cc1Br)OCO2)OC (stereo not given),0.385,inactive: -1.76,1.34,0.23,0.347,-0.0817,0.201,0.809,0.757,inactive: -0.491,0.702,0.285,0.0843,0.652,0.217,1.7,-0.979,-0.0186,1.37,0.847
O=P(/N=C1/CC(CCCO)=CC(C2CC2)N1Cc1cc2c(cc1Br)OCO2)(Oc1ccccc1)Oc1ccccc1 (stereo not given),-0.075,inactive: -4.91,3.15,0.365,-0.237,0.32,-0.0828,0.164,0.867,inactive: 0.101,-0.261,0.431,-0.253,0.199,-0.497,1.15,-0.496,-0.34,1.71,0.875
O=P(/N=C1/CC(CCCO)=CC(c2ccc(CN3CCCC3)cc2)N1Cc1sc2ccccc2c1Cl)(Oc1ccccc1)Oc1ccccc1 (stereo not given),0.126,inactive: -5.16,2.62,-0.149,-0.178,0.0311,-0.0797,0.253,0.282,inactive: -0.241,-0.0155,0.281,-0.352,-0.0928,0.199,1.13,-4.09,-0.0857,1.07,0.292
COP(=O)(/N=C1/CC(c2ccc(CO)cc2)=CC(C2CC2)N1C)OC (stereo not given),-0.0444,inactive: -2.03,0.366,-0.111,0.461,-0.067,-0.0687,0.294,-0.0139,inactive: -1.16,0.852,0.386,-0.0986,0.682,0.424,1.33,-0.145,0.145,1.24,-0.017
CC1C=C(CCCO)C/C(=N/P(=O)(Oc2ccccc2)Oc2ccccc2)N1Cc1cccc(OC(F)(F)F)c1 (stereo not given),0.908,inactive: -0.367,2.92,-0.0924,0.421,0.322,-0.0688,0.164,0.0318,inactive: -0.0742,0.121,0.262,-0.297,0.0722,-0.0231,0.817,-0.922,0.0418,0.396,0.718
